Key:
[1] = target: T1, Bcl-xL protein (Homo sapiens, UniProt Q07817); assay: Surface plasmon resonance assay, immobilized Bcl-xL; format: binding; conditions: SPR kinetic analysis, 1:1 model
T1 construct: made in house
Description: The surface plasmon resonance experiments were performed using a Biacore 3000 (GE Healthcare Pittsburgh, PA) equipped with a research-grade CM5 sensor chip. The ligand (Bcl-xL) was immobilized using amine-coupling chemistry. The surfaces of flow cells on a Biacore sensor chip CM5 were activated for 7 min with a 1:1 mixture of 0.1 M NHS (N-hydroxysuccinimide) and 0.1 M EDC (3-(N,N-dimethylamino) propyl-N-ethylcarbodiimide) at a flow rate of 5 μL/min. The ligand (Bcl-xL) at a concentration of 180 μg/mL in 10 mM sodium acetate, pH 4.5, was immobilized at a density of about 10000 RU on flow cell 2; the ligand (SUMO-Bcl-2, 37.5 kDa, > 90% pure based on SDS–PAGE) at a concentration of 44 μg/ml in 10 mM sodium acetate, pH 4.5, was immobilized at a density of 10000 RU on flow cell 3; flow cell 1 was left blank to serve as a reference surface. All the surfaces were blocked with a 7 min injection of 1 M ethanolamine, pH 8.0.
For kinetic analysis, a concentration series of analyte were injected over the flow cells at a flow rate of 60 μL/min at 20 °C. The complex was allowed to associate and dissociate for 120 and 180 s, respectively. […]
All measurements were taken with flow cell 1 as a reference (i.e. sensorgram depicts “2–1 correction”) and corrected for DMSO bulk differences via the calibration curves. […] The equilibrium dissociation constant (KD) was determined by Kd/Ka.

The chains behind the UniProt entries cited, without tags or fusion partners.
UniProt Q07817, whole entry: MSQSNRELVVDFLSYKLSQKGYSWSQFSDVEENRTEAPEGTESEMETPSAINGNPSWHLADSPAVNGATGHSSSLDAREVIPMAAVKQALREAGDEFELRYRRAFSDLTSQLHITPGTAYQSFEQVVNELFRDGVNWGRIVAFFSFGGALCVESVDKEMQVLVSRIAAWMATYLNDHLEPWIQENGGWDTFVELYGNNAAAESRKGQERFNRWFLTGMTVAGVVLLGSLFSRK

[2] = target: T1, Bcl-xL protein; assay: FP direct binding of fluorescein-labeled BH3 peptides to Bcl-xL; conditions: Bcl-xL titrated to 50 nM fluorescent peptide
Description: Figure 1 FP-based HTS for Beclin 1 mimetics (A) Schematic presentation of the Beclin 1 protein and sequences of five synthetic peptides modified from Beclin 1 BH3 peptide. Diagram of human Beclin 1 protein with different domains is shown in the bottom. BH3 domain is necessary and sufficient for interaction with Bcl-2/Bcl-xL. Amino acids in red are the critical residues for the binding. (B) Five fluorescein-labeled Beclin 1 BH3 peptides were tested for their binding ability to Bcl-xL protein in FP assay. Fluorescein-labeled Bak BH3 peptide was used as a positive control. Bcl-xL protein was titrated to a solution of 50 nM peptides. (C) Competitive binding assay with positive controls, ABT-263 and (–)-gossypol ((–)G). […] (D–E) HTS was performed with ~50000 compounds from Prestwick, Microsource, CMLD and Chembridge libraries. The four libraries were divided into two groups and screened separately. Compounds activity (percent of inhibition) of first screen (D) and second screen (E) were shown with Z′ value indicated on top. […]
All N′-fluorescein-labeled peptides were purchased from Kansas State University (Manhattan, KS). […] Anisotropy measurements were taken at room temperature using a BioTek Synergy H4 plate reader (Biotek, Winooski, VT) following the protocol recommended by the manufacture. […] After 2 h incubation, the plate was read and polarization was calculated.

kon ([1]; read-out: association rate (Ka) to Bcl-xL): 138000 M⁻¹ s⁻¹
koff ([1]; read-out: dissociation rate (Kd) from Bcl-xL): 1 s⁻¹
binding to Bcl-xL in FP assay [2]: good binding curves
Structure (SMILES): CC[C@H](C)[C@H](NC(=O)[C@H](CC(=O)O)NC(=O)[C@H](Cc1ccccc1)NC(=O)[C@H](CC(C)C)NC(=O)[C@H](CC(=O)O)NC(=O)CNC(=O)[C@@H](NC(=O)[C@@H](NC(=O)[C@H](CCCCN)NC(=O)[C@H](CC(C)C)NC(=O)[C@H](CCCNC(=N)N)NC(=O)[C@H](CCCNC(=N)N)NC(=O)[C@H](CO)NC(=O)[C@H](CC(C)C)NC(=O)[C@H](CC(N)=O)NC(=O)[C@H](CCC(=O)O)NC(=O)[C@H](CCSC)NC(=O)[C@@H](N)[C@@H](C)O)C(C)C)[C@@H](C)O)C(=O)N[C@@H](CCSC)C(=O)N[C@@H](CO)C(=O)O [Compound 20-mer]
